Drawing on ChEMBL document CHEMBL1145967, “Design, synthesis, and biological activities of classical N-[4-[2-(2-amino-4-ethylpyrrolo[2,3-d]pyrimidin-5-yl)ethyl]benzoyl]-l-glutamic acid and its 6-methyl derivative as potential dual inhibitors of thymidylate synthase and dihydrofolate reductase and as potential antitumor agents” (J Med Chem, 2003), this text covers IC50 for one compound.

Chains of the proteins cited; added tags and fusions are not shown.
UniProt C3SWJ7, whole entry: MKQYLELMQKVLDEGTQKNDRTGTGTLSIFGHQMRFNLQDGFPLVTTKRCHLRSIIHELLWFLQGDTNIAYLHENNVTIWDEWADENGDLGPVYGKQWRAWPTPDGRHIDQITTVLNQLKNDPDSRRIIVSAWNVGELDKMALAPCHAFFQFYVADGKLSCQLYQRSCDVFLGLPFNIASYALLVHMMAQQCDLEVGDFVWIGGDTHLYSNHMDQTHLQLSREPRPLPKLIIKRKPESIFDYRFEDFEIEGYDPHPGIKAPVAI

The target of this test is Thymidylate synthase (Escherichia coli, UniProt C3SWJ7). The experiment in a line: Compound was evaluated as inhibitor of Escherichia coli thymidylate synthase.

Structures are written as SMILES. pIC50: −log10 of the molar value.

For `CCc1[nH]c(N)nc2nc(C)c(CCc3ccc(C(=O)N[C@@H](CCC(=O)O)C(=O)O)cc3)c1-2`, the pIC50 – broadly, −log10 of the IC50, conventionally taken in molar units – is 4.74.
